From PMC9743128, “Phenotype-based screening rediscovered benzopyran-embedded microtubule inhibitors as anti-neuroinflammatory agents by modulating the tubulin–p65 interaction” (Experimental & Molecular Medicine, 2022)

System: α-tubulin monomers in RAW264.7 cells
Test: Tubulin monomer/polymer isolation and western blot
Type: cell-based, murine
Details: 10 μM for 6 h

## COc1cc2c(c(OC)c1OC)-c1ccc(OC)c(=O)cc1[C@@H](NC(C)=O)CC2 [Colchicine]
  Total α-tubulin monomers: increased the total α-tubulin monomers
